Reference: US20250074890A1, “CYANOPYRIDINE AND CYANOPYRIMIDINE BCL6 DEGRADERS” (DANA-FARBER CANCER INSTITUTE, INC., priority 2021, published 2025)

System: Su-DHL-4 cells
Assay: CellTiter-Glo cell proliferation, BCL6 degrader with EZH2 inhibitors
Type: cell-based
Conditions: EZH2 inhibitor at 480 nM added to BCL6 degrader (compound 1), 60% growth inhibition
Method: Enhancer of zeste homolog 2 (EZH2) is a member of the polycomb repressive complex 2 (PRC2) that methylates histone 3 lysine 27, a mark that is associated with gene repression.
To ensure HiBiT signal decrease was due to BCL6 degradation and not from dying cells, CellTiter-Glo® (CTG, Promega™) was performed on the same number of cells that were treated for 24 hours with BCL6 degraders. To study the anti-proliferative effects of BCL6 degraders and its synergistic effect with EZH2 inhibitors, Su-DHL-4 and other DLBCL cells were treated with the compounds at DC99, DC75, DC50, or 1 μM followed by 5 days of culture, at which point CTG values and/or Caspase3/7 activities were measured as percent DMSO treated.

In the case of `CCN(c1cc(-c2ccc(CN3CCOCC3)cc2)cc(C(=O)NCc2c(C)cc(C)[nH]c2=O)c1C)C1CCOCC1` [Taz, Tazemetostat, reference compound], the “reduction of BCL6 degrader dose requirement to achieve GI60” value is reported as “around 4.3 fold”.
